Tested on: WM266-4 cells
Format: cell-based
Details: B18R 100 ng/ml, type I IFN decoy receptor
Protocol: For the intracellular delivery of immune stimulatory RNAs, RNAs were transfected with the DharmaFECT® Duo liposomal transfection reagent (Thermo Scientific, Waltham, Mass.) at a transfection reagent (μl):RNA (μg) ratio of 3.75:1, according to the manufacturer's instructions. Unless otherwise stated, for the induction of innate immune responses and apoptosis, immune stimulatory RNAs (500 ng/ml) were transfected into 50 to 70% confluent cells. Cells were incubated with an RNA-transfection agent complex for 5 h, followed by replenishment with fresh culture medium. […]
Growth inhibition relative to untreated cells was quantified at 72 h after RNA transfection using an MTT Cell Proliferation Assay Kit (Cayman Chemicals, Ann Arbor, Mich.), according to the manufacturer's instructions. The percent growth inhibition was calculated by using the following equation: % growth inhibition=([O.D.]untreated−[O.D.]treated)/[O.D.]untreated×100. The induction of cell death was measured 48 h after RNA transfection by flow cytometry after staining with Annexin V-PE and 7-Aminoactinomycin D (7-AAD) using the PE Annexin V Apoptosis Detection Kit I (BD Biosciences, San Jose, Calif.) and analyzed using the CellQuest software (BD Biosciences).

B1: recombinant IFNβ: recombinant human IFNβ (PeproTech), positive control of anti-melanoma cytotoxicity (protein)
chain: MSYNLLGFLQRSSNFQCQKLLWQLNGRLEYCLKDRMNFDIPEEIKQLQQFQKEDAALTIYEMLQNIFAIFRQDSSSTGWNETIVENLLANVYHQINHLKTVLEEKLEKEDFTRGKLMSSLHLKRYYGRILHYLKAKEYSHCAWTIVRVEILRNFYFINRLTGYLRN
B1 was tested, and the “cell death / apoptosis of melanoma cells on co-treatment with B18R” value was “completely abolished”.
